Results as given in patent US20090138978A1 (GENERAL HOSPITAL, published 2009).

The chains behind the UniProt entries cited, without tags or fusion partners. Residues count along the entry.
UniProt Q09472, 2-2414 limits assumed: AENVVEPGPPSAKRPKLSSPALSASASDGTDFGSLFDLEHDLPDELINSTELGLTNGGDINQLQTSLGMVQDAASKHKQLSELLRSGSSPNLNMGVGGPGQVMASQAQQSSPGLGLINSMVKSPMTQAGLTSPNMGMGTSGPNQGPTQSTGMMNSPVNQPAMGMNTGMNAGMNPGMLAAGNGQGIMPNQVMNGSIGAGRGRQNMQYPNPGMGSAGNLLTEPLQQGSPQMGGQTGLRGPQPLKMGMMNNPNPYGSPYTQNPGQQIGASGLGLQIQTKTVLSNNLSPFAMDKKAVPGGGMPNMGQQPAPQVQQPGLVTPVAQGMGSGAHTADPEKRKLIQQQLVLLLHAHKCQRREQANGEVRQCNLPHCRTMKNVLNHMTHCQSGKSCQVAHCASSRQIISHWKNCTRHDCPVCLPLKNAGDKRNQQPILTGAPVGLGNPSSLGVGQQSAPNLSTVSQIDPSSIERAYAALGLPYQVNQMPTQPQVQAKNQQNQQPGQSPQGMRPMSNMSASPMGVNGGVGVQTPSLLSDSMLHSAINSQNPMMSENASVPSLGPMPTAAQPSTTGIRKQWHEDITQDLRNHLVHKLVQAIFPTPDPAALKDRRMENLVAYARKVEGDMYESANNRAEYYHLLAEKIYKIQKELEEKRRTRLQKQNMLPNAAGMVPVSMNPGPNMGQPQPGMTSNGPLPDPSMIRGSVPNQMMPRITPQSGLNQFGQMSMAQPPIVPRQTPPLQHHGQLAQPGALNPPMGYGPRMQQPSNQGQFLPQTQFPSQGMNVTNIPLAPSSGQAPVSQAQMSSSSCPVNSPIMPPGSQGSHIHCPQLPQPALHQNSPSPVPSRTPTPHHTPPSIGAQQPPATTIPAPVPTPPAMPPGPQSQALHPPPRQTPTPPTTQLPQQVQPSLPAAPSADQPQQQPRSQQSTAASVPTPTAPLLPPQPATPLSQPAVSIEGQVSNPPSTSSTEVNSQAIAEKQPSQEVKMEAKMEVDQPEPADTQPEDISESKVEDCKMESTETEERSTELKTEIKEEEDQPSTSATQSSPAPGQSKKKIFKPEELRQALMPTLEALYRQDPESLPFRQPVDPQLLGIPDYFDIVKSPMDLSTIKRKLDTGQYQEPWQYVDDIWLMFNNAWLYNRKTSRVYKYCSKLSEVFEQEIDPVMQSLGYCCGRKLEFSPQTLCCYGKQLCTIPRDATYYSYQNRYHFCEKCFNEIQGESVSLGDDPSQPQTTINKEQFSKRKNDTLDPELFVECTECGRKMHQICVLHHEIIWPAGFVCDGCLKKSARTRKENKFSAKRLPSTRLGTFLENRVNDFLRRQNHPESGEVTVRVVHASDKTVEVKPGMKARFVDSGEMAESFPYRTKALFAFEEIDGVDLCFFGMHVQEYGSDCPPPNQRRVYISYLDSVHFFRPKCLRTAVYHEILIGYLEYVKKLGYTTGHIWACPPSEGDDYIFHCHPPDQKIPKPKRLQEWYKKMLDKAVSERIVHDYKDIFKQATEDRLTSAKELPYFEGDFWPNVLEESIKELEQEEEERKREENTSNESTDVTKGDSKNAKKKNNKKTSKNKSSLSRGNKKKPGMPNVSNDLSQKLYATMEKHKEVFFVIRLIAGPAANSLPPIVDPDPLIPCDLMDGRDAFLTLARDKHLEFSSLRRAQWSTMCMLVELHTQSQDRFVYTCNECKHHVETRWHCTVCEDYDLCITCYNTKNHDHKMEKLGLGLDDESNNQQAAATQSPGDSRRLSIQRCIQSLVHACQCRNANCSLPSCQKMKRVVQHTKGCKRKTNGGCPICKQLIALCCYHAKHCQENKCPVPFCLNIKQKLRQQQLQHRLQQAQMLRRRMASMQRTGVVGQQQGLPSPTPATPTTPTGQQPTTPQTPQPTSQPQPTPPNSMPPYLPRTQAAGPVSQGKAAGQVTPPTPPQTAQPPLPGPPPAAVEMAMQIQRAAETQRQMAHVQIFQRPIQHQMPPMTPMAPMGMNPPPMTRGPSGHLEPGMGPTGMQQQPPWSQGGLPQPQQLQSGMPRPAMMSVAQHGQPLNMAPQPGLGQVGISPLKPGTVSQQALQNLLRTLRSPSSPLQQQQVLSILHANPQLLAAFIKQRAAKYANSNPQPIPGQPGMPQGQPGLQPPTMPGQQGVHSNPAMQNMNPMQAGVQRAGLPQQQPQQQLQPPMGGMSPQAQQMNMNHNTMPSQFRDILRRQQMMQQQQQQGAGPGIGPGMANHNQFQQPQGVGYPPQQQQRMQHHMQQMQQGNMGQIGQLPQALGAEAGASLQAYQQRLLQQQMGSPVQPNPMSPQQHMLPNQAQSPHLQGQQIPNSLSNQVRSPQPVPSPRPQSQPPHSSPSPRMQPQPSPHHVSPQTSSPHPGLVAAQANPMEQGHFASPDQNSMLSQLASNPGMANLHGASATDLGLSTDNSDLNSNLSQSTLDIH

Target: T1, p300 (full-length histone acetyltransferase and nuclear receptor coactivator) (UniProt Q09472, [35S]-methionine labelled in the pull-down assays)
T1 construct: mature; In vitro translated in rabbit reticulocyte lysate for the pull-downs; Expressed from pCMV-p300 in BHK cells for the reporter assay; also called [35S]-p300; radiolabeled in vitro translated full-length p300
Assay: GST pull-down with [35S]-labelled in vitro translated full-length p300

binding result: no binding
B1: GST control protein (glutathione S-transferase alone) (other, UniProt P08515 1-218, looked up)
chain: MSPILGYWKIKGLVQPTRLLLEYLEEKYEEHLYERDEGDKWRNKKFELGLEFPNLPYYIDGDVKLTQSMAIIRYIADKHNMLGGCPKERAEISMLEGAVLDIRYGVSRIAYSKDFETLKVDFLSKLPEMLKMFEDRLCHKTYLNGDHVTHPDFMLYDALDVVLYMDPMCLDAFPKLVCFKKRIEAIPQIDKYLKSSKYIAWPLQGWQATFGGGDHPPK
notes: Negative control of the GST pull-down assays; also called GST negative control protein
